Reference: publication PMC9151520 (Archives of Toxicology, 2022)

What was measured:
[1] = system: p53 signaling (p53RE-bla HCT-116 cells); assay: p53-bla reporter gene assay with human liver microsomes (HLM) plus NADPH
[2] = system: p53 signaling (p53RE-bla HCT-116 cells); assay: p53-bla reporter gene assay with heat-attenuated RLM plus NADPH; type: cell-based; conditions: for efficacy: Heat-attenuated microsomes (RLM), value in parentheses
[3] = system: p53 signaling (p53RE-bla HCT-116 cells); assay: p53-bla reporter gene assay with RLM without NADPH; type: cell-based; conditions: No NADPH addition; for EC50: mean ± SD of three experiments; for efficacy: value in parentheses
[4] = parent compound, RLM with p53-bla cells, % of amount at 0 h
[5] = system: p53 signaling (p53RE-bla HCT-116 cells); assay: p53-bla reporter gene assay with rat liver microsomes (RLM) plus NADPH
p53RE-bla HCT-116 cells = assay: Cell viability (CellTiter Glo) multiplexed with the p53-bla assay; conditions: for Viability EC50, HLM / Viability Efficacy, HLM: human liver microsomes; for Viability EC50, RLM / Viability Efficacy, RLM: rat liver microsomes
[6] = system: p53 signaling (p53RE-bla HCT-116 cells); assay: p53-bla reporter gene assay without microsomes (qHTS); type: cell-based
[7] = Cherry pick confirmation, human liver microsomes
[8] = cherry pick confirmation, without microsomes
[9] = primary screening, without microsomes
[10] = cherry pick confirmation, with human liver microsomes
[11] = primary screening, with human liver microsomes
[12] = cherry pick confirmation, with rat liver microsomes
[13] = primary screening, with rat liver microsomes

Compound: CCOP(=S)(CC)Sc1ccccc1 (stereo not shown)
- p53 activation EC50, HLM [1, 7]: inactive
- p53 activation Efficacy, HLM [1, 7]: inactive
- EC50 ([1]; read-out: p53 activation EC50, HLM, Primary screening, human liver microsomes): 4.43 µM
- EC50 ([2]; Heat-attenuated microsomes (RLM, 56 °C 30 min), mean ± SD of three experiments): Inactive
- EC50 [3]: 18.9 µM
- efficacy [3]: 95.35 ± 18.84%
- Depletion after 16 h of incubation with cells [4]: 97.33 ± 0.29%
- activity outcome in p53-bla assay ([5]; with RLM, confirmation study): induce p53 signaling
- Viability EC50, HLM (p53RE-bla HCT-116 cells; Cherry pick confirmation): inactive
- Viability Efficacy, HLM (p53RE-bla HCT-116 cells; Cherry pick confirmation): inactive
- Viability EC50, RLM (p53RE-bla HCT-116 cells; Cherry pick confirmation): inactive
- Viability Efficacy, RLM (p53RE-bla HCT-116 cells; Cherry pick confirmation): inactive
- Viability EC50, HLM (p53RE-bla HCT-116 cells; Primary screening): inactive
- Viability Efficacy, HLM (p53RE-bla HCT-116 cells; Primary screening): inactive
- Viability EC50, RLM (p53RE-bla HCT-116 cells; Primary screening): inactive
- Viability Efficacy, RLM (p53RE-bla HCT-116 cells; Primary screening): inactive
- Viability EC50, No MS (p53RE-bla HCT-116 cells; [8]): inactive
- Viability Efficacy, No MS (p53RE-bla HCT-116 cells; [8]): inactive
- Viability EC50, No MS (p53RE-bla HCT-116 cells; [9]): inactive
- Viability Efficacy, No MS (p53RE-bla HCT-116 cells; [9]): inactive
- p53 activation EC50, No MS ([6]; cherry pick confirmation): inactive
- p53 activation Efficacy, No MS ([6]; cherry pick confirmation): inactive
- p53 activation EC50, No MS ([6]; primary screening): inactive
- p53 activation Efficacy, No MS ([6]; primary screening): inactive

Compound: EPN
- p53 activation EC50 [1, 10]: inactive
- p53 activation efficacy [1, 10]: inactive
- p53 activation efficacy [1, 11]: 33.0667
- efficacy [2]: 30.74 ± 7.4%
- efficacy [3]: 62.97 ± 5.75%
- Depletion after 16 h of incubation with cells [4]: 88.15 ± 1.39%
- p53 activation efficacy [5, 12]: 40.6193
- p53 activation efficacy [5, 13]: 50.976
- Viability EC50 (p53RE-bla HCT-116 cells; [10]): inactive
- Viability efficacy (p53RE-bla HCT-116 cells; [10]): inactive
- Viability EC50 (p53RE-bla HCT-116 cells; [12]): inactive
- Viability efficacy (p53RE-bla HCT-116 cells; [12]): inactive
- Viability EC50 (p53RE-bla HCT-116 cells; [8]): inactive
- Viability efficacy (p53RE-bla HCT-116 cells; [8]): inactive
- Viability EC50 (p53RE-bla HCT-116 cells; [11]): inactive
- Viability efficacy (p53RE-bla HCT-116 cells; [11]): inactive
- Viability EC50 (p53RE-bla HCT-116 cells; [13]): inactive
- Viability efficacy (p53RE-bla HCT-116 cells; [13]): inactive
- Viability EC50 (p53RE-bla HCT-116 cells; [9]): inactive
- Viability efficacy (p53RE-bla HCT-116 cells; [9]): inactive
- p53 activation EC50 ([6]; cherry pick confirmation): inactive
- p53 activation efficacy ([6]; cherry pick confirmation): inactive
- p53 activation EC50 ([6]; primary screening): inactive
- p53 activation efficacy ([6]; primary screening): inactive

Compound: CC(C)OP(=S)(OC(C)C)SCCNS(=O)(=O)c1ccccc1
- p53 activation EC50 [1, 10]: inactive
- p53 activation efficacy [1, 10]: inactive
- p53 activation efficacy [1, 11]: 38.1643
- EC50 ([1]; read-out: p53 activation EC50, primary screening, with human liver microsomes): 5.12 µM
- efficacy [2]: 54.92 ± 34.55%
- EC50 [3]: 9.68 µM
- efficacy [3]: 58.17 ± 3.93%
- EC50 ([5]; Microsomes (RLM plus NADPH), follow-up study, mean ± SD of three experiments): 8.35 µM
- p53 activation efficacy [5, 12]: 47.4617
- p53 activation efficacy [5, 13]: 42.8953
- EC50 ([5]; read-out: p53 activation EC50, cherry pick confirmation, with rat liver microsomes): 7.08 µM
- EC50 ([5]; read-out: p53 activation EC50, primary screening, with rat liver microsomes): 4.95 µM
- Viability EC50 (p53RE-bla HCT-116 cells; [10]): inactive
- Viability efficacy (p53RE-bla HCT-116 cells; [10]): inactive
- Viability EC50 (p53RE-bla HCT-116 cells; [12]): inactive
- Viability efficacy (p53RE-bla HCT-116 cells; [12]): inactive
- Viability EC50 (p53RE-bla HCT-116 cells; [8]): inactive
- Viability efficacy (p53RE-bla HCT-116 cells; [8]): inactive
- Viability EC50 (p53RE-bla HCT-116 cells; [11]): inactive
- Viability efficacy (p53RE-bla HCT-116 cells; [11]): inactive
- Viability EC50 (p53RE-bla HCT-116 cells; [13]): inactive
- Viability efficacy (p53RE-bla HCT-116 cells; [13]): inactive
- Viability EC50 (p53RE-bla HCT-116 cells; [9]): inactive
- Viability efficacy (p53RE-bla HCT-116 cells; [9]): inactive
- p53 activation EC50 ([6]; cherry pick confirmation): inactive
- p53 activation efficacy ([6]; cherry pick confirmation): inactive
- p53 activation EC50 ([6]; primary screening): inactive
- p53 activation efficacy ([6]; primary screening): inactive
